# Assay results from PubChem BioAssay AID687016 (The Scripps Research Institute Molecular Screening Center, 2013).
# Sequences of proteins named here, by UniProt entry; tags and fusion partners are left off.
# UniProt Q96T88, whole entry: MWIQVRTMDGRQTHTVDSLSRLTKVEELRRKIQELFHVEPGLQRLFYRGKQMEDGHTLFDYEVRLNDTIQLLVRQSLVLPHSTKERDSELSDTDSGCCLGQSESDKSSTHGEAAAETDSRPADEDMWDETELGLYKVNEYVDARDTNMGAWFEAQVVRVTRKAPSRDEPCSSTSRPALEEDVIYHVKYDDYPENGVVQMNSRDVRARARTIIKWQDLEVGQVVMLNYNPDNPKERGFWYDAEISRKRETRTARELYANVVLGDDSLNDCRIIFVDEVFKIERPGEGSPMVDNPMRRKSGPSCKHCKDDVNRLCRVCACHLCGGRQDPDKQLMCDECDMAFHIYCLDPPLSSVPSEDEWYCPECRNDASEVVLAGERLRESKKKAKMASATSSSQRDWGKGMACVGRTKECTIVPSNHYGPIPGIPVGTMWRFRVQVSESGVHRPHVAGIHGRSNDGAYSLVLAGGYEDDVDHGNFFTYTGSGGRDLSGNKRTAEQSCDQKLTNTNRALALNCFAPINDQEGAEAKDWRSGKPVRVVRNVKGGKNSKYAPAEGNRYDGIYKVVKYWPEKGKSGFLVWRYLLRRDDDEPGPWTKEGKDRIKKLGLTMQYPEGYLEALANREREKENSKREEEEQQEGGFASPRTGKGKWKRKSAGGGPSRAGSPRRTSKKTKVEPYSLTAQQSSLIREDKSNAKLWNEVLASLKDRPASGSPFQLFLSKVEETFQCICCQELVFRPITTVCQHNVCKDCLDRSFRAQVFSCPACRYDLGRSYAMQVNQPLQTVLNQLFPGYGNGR
# The entries are a selection whose mix differs from that of the whole data set. Some tests of the compounds listed are not included; inactive here does not mean inactive elsewhere. Active and inactive are the calls of the source. Rule as the data show it: active = inhibition above about 21%; inactive = the rest.
# Molecular target: E3 ubiquitin-protein ligase UHRF1 (Homo sapiens) (UniProt Q96T88)
# Test: blockers of UHRF1 binding to methyl-oligo – biochemical, TR-FRET, human UHRF1, single concentration, counter-screen for MBD2 inhibitor project, primary screen (AID 687016);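 also: UHRF1 SRA domain binding a hemimethylated CpG hairpin DNA probe; 0% = median of test compound wells and 100% = reference inhibitor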
# Settings: UHRF1 binding to methylated oligo, at 4.4 µM, active compounds read high
row,SMILES,inhibition
1,O=C(OC1CN2CCC1CC2)C(CO)(c1ccccc1)c1ccccc1 (stereo unspecified),inactive: 1.78%
2,O=C(OCCN1CCCC1)C(O)(c1ccccc1)c1ccccc1,inactive: -1.39%
3,CC(C)Oc1ccc(C(=O)NCC2(N(C)C)CCCCC2)cc1,inactive: 3.51%
4,CN(C)c1cccc(C(=O)NCC2(N(C)C)CCCCC2)c1,inactive: -1.23%
5,C=C(C)C#CC(O)(C(=O)OC1CCN(C)CC1)c1ccccc1 (stereo unspecified),inactive: -2.14%
6,COc1ccc(Br)c(C(=O)NCC2(N3CCCCC3)CCCCC2)c1,inactive: 2.89%
7,COc1cc(C(=O)NCC2(N(C)C)CCCCC2)c([N+](=O)[O-])cc1OC,inactive: -1.99%
8,CN(C)C1(CNC(=O)c2ccc(Br)cc2)CCCCC1,inactive: 3.37%
9,O=C(NCC1(N2CCCCC2)CCCCC1)c1cccc(Cl)c1,inactive: 3.01%
10,COc1ccc(Cl)cc1C(=O)NCC1(N(C)C)CCCCC1,inactive: 5.18%
11,COc1cccc(C(=O)NCC2(N3CCCCC3)CCCCC2)c1,inactive: -2.92%
12,CN(C)C1CCCC1OC(=O)C(O)(c1ccccc1)c1ccccc1 (stereo unspecified),inactive: 0.74%
13,CN(C)c1ccc(C(=O)NCC2(N(C)C)CCCCC2)cc1,inactive: 0.66%
14,Cc1ccccc1C(=O)NCC1(N2CCCCC2)CCCCC1,inactive: -0.73%
15,COc1ccc(C(=O)NCC2(N(C)C)CCCCC2)cc1,inactive: -0.31%
16,O=C(NCC1(N2CCCCC2)CCCCC1)c1cccc(Br)c1,inactive: -2.33%
17,Cc1cc(C(=O)NCC2(N3CCCCC3)CCCCC2)ccc1[N+](=O)[O-],inactive: 1.11%
18,CCN1CCCC(OC(=O)C2(O)c3ccccc3C=Cc3ccccc32)C1 (stereo unspecified),inactive: 4.43%
19,O=C(NCC1(N2CCCCC2)CCCCC1)c1cc(F)c(F)cc1Cl,inactive: -2.19%
20,C=CCN1CCN(CCOC(=O)C(O)(c2ccccc2)c2ccccc2)CC1,inactive: -1.23%
21,CN1[C@@H]2CC[C@H]1CC(OC(=O)C(O)(c1ccccc1)c1ccccc1)C2 (stereo partly specified),inactive: 2.67%
22,O=C(NCC1(N2CCCCC2)CCCCC1)c1cc([N+](=O)[O-])ccc1Cl,inactive: 0.21%
23,Cc1ccc(C(=O)NCC2(N3CCCCC3)CCCCC2)cc1,inactive: -0.67%
24,COc1cc(SC)ccc1C(=O)NCC1(N(C)C)CCCCC1,inactive: 1.85%
25,CCN(CC)CC(C)C(C)OC(=O)C(O)(c1ccccc1)c1ccccc1 (stereo unspecified),inactive: -0.83%
26,CC(C)N1C(=O)CC2(CCN(CCOC(=O)C(O)(c3ccccc3)c3ccccc3)CC2)C1=O,inactive: 2.27%
